The source of these data is patent US11492376B2, “Toxoplasma gondii GRA8-derived recombinant peptides and composition for preventing or treating cancer comprising the same” (Industry—University Cooperation Foundation Hanyang …, priority 2019, dated 2022).

This data set can be described thus: Immunogenicity: specific IgG by ELISA in immunized mice. The settings on record: immunized BALB/C mice, OD 450 nm. As to the method:
Immunoblotting was performed with anti-PKCα, anti-ATP5A1, anti-SIRT3 or anti-actin. […] (B) The schematic diagram of a xenograft model treated with rVector (upper). HCT116-expressing ATP5A1 WT and mutant cells were subcutaneously injected into the flank of nude mice. […] Each group included 10 mice. […] (C) Humoral immune responses in BALB/C mice. The mice were immunized via each route (intravenous injection or intraperitoneal injection) every third day, and subjected to blood collection on day 40. […] The values are expressed as mean±standard deviation for absorbance (OD) at 450 nm. Each group included five mice. (D) Cytokine response for rATRAM-GRA8-M/AS in tumor-bearing mice. As described in the method section, HCT116 cells were subcutaneously injected into the flank of a BALB/c mouse. A serum cytokine level was measured on day 30 after administration. Each group included 10 mice.
Since immunogenicity is closely related with safety and efficacy, it is one of the critical factors for development of therapeutic proteins. Therefore, by monitoring the production of antibodies against rATRAM-GRA8-M/AS in immunized mice, the immunogenicity of rATRAM-GRA8-M/AS was investigated. After three consecutive injections of rATRAM-GRA8-M/AS, a level of IgG antibody was analyzed using enzyme-linked immunosorbent assay (ELISA).
Background: An ELISA detects its analyte on a solid surface through an enzyme-linked reagent.

Consider ovalbumin [reference compound], for which the “level of specific IgG antibody” value was “significant increase”.
